What was measured:
[1] = target: CDK2/Cyclin A1 (Homo sapiens) (UniProt P24941+P78396); test: Potency index, ratio of AT7519 IC50 to test compound IC50 for human CDK2/Cyclin A1; type: protein-complex assay
[2] = target: Receptor-type tyrosine-protein kinase FLT3 (Homo sapiens, UniProt P36888); test: Potency index, ratio of sorafenib IC50 to test compound IC50 for human FLT3

The chains behind the UniProt entries cited, without tags or fusion partners. Where a name states a change or a piece, a line headed by the entry shows the natural chain unless it says otherwise.
UniProt P78396: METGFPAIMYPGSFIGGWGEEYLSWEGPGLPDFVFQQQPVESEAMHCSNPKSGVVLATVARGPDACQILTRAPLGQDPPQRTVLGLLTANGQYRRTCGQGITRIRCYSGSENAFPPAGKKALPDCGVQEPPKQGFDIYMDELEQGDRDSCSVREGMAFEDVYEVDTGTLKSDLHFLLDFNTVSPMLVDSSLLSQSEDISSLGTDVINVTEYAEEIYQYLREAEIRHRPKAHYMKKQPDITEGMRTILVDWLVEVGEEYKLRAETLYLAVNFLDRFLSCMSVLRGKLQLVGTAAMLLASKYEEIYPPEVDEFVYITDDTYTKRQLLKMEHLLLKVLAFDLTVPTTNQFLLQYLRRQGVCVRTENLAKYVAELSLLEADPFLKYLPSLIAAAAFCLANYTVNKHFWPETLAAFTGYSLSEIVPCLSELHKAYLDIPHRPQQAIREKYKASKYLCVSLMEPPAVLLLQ
UniProt P36888, whole entry: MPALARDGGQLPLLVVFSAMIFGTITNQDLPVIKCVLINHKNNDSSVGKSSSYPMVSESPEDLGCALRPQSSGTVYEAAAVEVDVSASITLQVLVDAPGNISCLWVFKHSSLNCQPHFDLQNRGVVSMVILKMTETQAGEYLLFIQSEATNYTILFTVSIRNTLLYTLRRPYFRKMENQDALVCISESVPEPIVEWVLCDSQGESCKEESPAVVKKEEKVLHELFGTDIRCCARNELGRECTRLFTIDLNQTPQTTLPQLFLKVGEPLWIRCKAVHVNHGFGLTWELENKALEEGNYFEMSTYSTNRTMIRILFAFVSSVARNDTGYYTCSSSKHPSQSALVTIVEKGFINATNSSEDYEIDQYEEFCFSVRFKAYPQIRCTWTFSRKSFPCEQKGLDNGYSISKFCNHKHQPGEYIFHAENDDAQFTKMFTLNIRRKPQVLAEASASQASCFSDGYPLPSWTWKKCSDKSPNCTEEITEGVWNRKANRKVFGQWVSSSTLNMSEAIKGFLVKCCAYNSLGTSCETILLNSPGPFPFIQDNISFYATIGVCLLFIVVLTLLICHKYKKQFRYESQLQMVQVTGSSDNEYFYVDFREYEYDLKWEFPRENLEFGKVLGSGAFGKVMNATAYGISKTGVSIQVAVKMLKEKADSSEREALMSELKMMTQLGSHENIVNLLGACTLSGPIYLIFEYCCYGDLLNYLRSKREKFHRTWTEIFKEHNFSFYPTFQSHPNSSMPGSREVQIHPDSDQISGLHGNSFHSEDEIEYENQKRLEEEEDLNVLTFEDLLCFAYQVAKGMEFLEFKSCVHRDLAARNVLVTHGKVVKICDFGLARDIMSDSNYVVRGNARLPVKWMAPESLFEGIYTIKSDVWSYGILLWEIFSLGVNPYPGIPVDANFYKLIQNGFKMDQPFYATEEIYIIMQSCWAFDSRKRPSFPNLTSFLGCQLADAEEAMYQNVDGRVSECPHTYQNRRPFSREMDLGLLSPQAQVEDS

For `O=C(Nc1ccc(CN2CCOCC2)cc1)c1n[nH]cc1Nc1ncnc2ccccc12`, the Ratio IC50 [1] was 10 and the Ratio IC50 [2] was 10.
